This is an account of results in patent US20060269529A1, “Modified t lymphocytes and uses therefor” (priority 2002, published 2006).

Experiment [1] has as its system CT26 murine colon adenocarcinomas. Kind of experiment: Adoptive transfer, subcutaneous CT26 tumors in BALB/c mice. It counts as in vivo. The following applies: i.v. CTLs days 7, 11, 14, 17, daily IL-2, day 19 post implantation, FIG. 4A. On the procedure: (§1) On day 0, tumor cells were implanted into the subcutaneous space on the right flank of recipient mice. On the days of treatment, CTLs (4 to 7 post-transduction) were harvested, washed, resuspended in cold PBS, and injected in a volume of 300 μl into the retro-orbital venous plexus. Mice were treated daily with 25,000 units of human recombinant interleukin-2 (IL-2) (Chiron) in 0.5 ml of PBS via intraperitoneal injection. TNP-470 (TAP Holdings Inc., Deerfield, Ill.) (30 mg/kg) was injected subcutaneously (into a site remote from the tumor) every other day in 0.3 ml PBS starting with the first day of CTL therapy. Starting volumes of tumors ranged from 40 to 80 mm^3. All mice were sacrificed when control mice reached a mean tumor volume of 2,000 mm^3 or had extensive tumor ulceration.

For a further experiment, the system named is B16.F10 murine melanomas. Kind of experiment: Adoptive transfer, subcutaneous B16.F10 tumors in C57BL/6 mice. It counts as in vivo. Particulars: i.v. CTLs days 7, 11, 14, 17, daily IL-2, day 19 post implantation, FIG. 4B. On the procedure:
as §1

As for “IL-2: human recombinant interleukin-2 (Chiron), given daily intraperitoneally”, the “inhibition of CT26 tumor growth (from T/C ratio)” value in experiment [1] is recorded as “no independent anti-tumor effect”. Besides, the “inhibition of B16.F10 tumor growth (from T/C ratio)” value in the experiment with B16.F10 murine melanomas is listed as “essential to achieve significant therapeutic effect”.
